In ChEMBL document CHEMBL4627353, “Synthesis of novel dual target inhibitors of PARP and HSP90 and their antitumor activities” (Bioorg Med Chem, 2020) one finds Ka, KSV and Kq data, which are given here for 1 compound.

By UniProt entry, the sequences of proteins in these tests, tags left out.
UniProt P08238, whole entry, looked up: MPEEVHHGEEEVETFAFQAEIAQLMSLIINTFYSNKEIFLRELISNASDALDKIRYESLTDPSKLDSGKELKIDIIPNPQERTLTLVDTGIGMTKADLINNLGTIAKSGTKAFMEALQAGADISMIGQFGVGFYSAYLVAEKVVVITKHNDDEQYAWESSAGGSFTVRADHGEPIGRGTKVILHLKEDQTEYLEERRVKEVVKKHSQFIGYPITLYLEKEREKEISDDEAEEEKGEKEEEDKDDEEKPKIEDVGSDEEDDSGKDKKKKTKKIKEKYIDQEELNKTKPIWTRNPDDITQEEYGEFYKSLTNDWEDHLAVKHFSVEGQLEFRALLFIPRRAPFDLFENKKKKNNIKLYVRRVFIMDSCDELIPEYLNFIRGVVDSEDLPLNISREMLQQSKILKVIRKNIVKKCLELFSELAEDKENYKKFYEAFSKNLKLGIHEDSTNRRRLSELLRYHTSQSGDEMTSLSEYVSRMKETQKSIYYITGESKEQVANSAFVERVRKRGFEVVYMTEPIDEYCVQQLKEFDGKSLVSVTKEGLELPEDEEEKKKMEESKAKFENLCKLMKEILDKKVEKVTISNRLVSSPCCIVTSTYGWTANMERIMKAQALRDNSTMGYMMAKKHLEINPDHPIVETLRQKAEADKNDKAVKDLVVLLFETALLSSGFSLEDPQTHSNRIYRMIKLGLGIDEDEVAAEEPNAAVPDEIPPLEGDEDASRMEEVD

Assay [1] deals with T1, Heat shock protein HSP90 (Homo sapiens, UniProt P07900+P08238).
The target of assay [2] is T1, Heat shock protein HSP90. This is another data set of the same source.
Assay [3] deals with T1, Heat shock protein HSP90. This is another data set of the same source.

As to `O=C1/C(=C/c2ccncc2)CN(C(=O)c2cc(Cc3n[nH]c(=O)c4ccccc34)ccc2F)C/C1=C\c1ccncc1`, at Heat shock protein HSP90 [1], the Ka was 8.14 ×10⁵ L/mol. The KSV on Heat shock protein HSP90 [2] was determined as 4.28 ×10⁴ L/mol. Besides, the Kq on Heat shock protein HSP90 [3] was found to be 4.28 ×10¹² L/mol/s.
